According to article PMC12533218:

B1: FoxO1: OGT-overexpressing lentivirus (protein)
parent chain: MAEAPQVVETDPDFEPLPRQRSCTWPLPRPEFNQSNSTTSSPAPSGGAAANPDAAASLASASAVSTDFMSNLSLLEESEDFARAPGCVAVAAAAAASRGLCGDFQGPEAGCVHPAPPQPPPTGPLSQPPPVPPSAAAAAGPLAGQPRKTSSSRRNAWGNLSYADLITKAIESSAEKRLTLSQIYEWMVKSVPYFKDKGDSNSSAGWKNSIRHNLSLHSKFIRVQNEGTGKSSWWMLNPEGGKSGKSPRRRAASMDNNSKFAKSRGRAAKKKASLQSGQEGPGDSPGSQFSKWPASPGSHSNDDFDNWSTFRPRTSSNASTISGRLSPIMTEQDDLGDGDVHSLVYPPSAAKMASTLPSLSEISNPENMENLLDNLNLLSSPTSLTVSTQSSPGSMMQQTPCYSFAPPNTSLNSPSPNYSKYTYGQSSMSPLPQMPMQTLQDSKSSYGGLNQYNCAPGLLKELLTSDSPPHNDIMSPVDPGVAQPNSRVLGQNVMMGPNSVMPAYGSQASHNKMMNPSSHTHPGHAQQTASVNGRTLPHVVNTMPHTSAMNRLTPVKTPLQVPLSHPMQMSALGSYSSVSSCNGYGRMGVLHQEKLPSDLDGMFIERLDCDMESIIRNDLMDGDTLDFNFDNVLPNQSFPHSVKTTTHSWVSG
B2: FoxO1: OGT co-transfection (protein)
parent chain: B1 parent chain

Experiments:
[1] = western blot of FoxO1, ATDC5 cells; details: glycan gained; control: control lentivirus
[2] = HA immunoprecipitation, ubiquitin blot; details: glycan gained; control: HA-FoxO1 without OGT

Protein	expression_or_secretion [1]	other: ubiquitination [2]
B1	increases	–
B2	–	decreases
